From patent US20060135415A1, “Immunomodulation and effect on cell processes relating to serotonin family receptors and the blood-brain barrier” (priority 2002, published 2006)

Test system: RPMI 8226 multiple myeloma cells
Experiment: RPMI 8226 cell viability and proliferation (trypan blue, MTT, 3H-thymidine)
Type: cell-based, human
Conditions: 3H-thymidine uptake, drug titration (FIGS. 19-25, 31, 32)
Procedure: The human plasmacytoma (multiple myeloma) cell line, RPMI 8226 (American Type Culture Collection, Manassas, Va.), was cultured in RPMI 1640 supplemented with 10 mM HEPES, 1 mM sodium pyruvate, 4.5 g/L glucose, 1.5 g/L bicarbonate and 20% FBS (non-heat inactivated).
Cell proliferation was assayed by three methods—Trypan Blue Exclusion was used to quantify the number of viable cells in culture; 3-(4,5-dimethylthiazol-2-yl)-2,5-diphenyl tetrazolium bromide (MTT) reduction was used to assay mitochondrial activity (and thus cell viability); and ^3H-Thymidine uptake was employed to assay for active DNA synthesis.
Three separate indicators of cell proliferation were employed to study the effects of 5-HT receptor modulating agents on the human multiple myeloma cell line, RPMI 8226. Cells were plated at 4 separate densities and were treated with LY53587 (an antagonist of the 5-HT2A/2B/2C receptors) at a range of concentrations. The exclusion of trypan blue dye was used as an indicator of cell viability. Cell numbers were then plotted against the concentration of drug added.
MTT reduction was also used as an indicator of cell viability (more specifically, mitochondrial activity). Absorbance values at OD570 were then plotted against drug concentration. […]

OCCN1CCN(CCCN2c3ccccc3Sc3ccc(C(F)(F)F)cc32)CC1 [Fluphenazine]
growth / proliferation of RPMI 8226 cells: inhibits T cell responses, as well as the growth of multiple myeloma cell lines | growth / proliferation of RPMI 8226 cells (listed as fluphenazine): clear dose-response curve
